Test results reported in the NIST ThermoML archive (doi:10.1016/j.jct.2011.11.025).

Assay: activity coefficient (dimensionless); of the first substance listed, at infinite dilution; xn = mol fraction of the nth substance listed
Conditions: Liquid, Chromatography, x1 = 0

CCCCOCCCC [dibutyl ether] + CCCCCCn1cc[n+](C)c1.N#C[B-](C#N)(C#N)C#N
Conditions	activity coefficient
318.15 K	7.23
328.15 K	6.98
338.15 K	6.79
348.15 K	6.68
358.15 K	6.52
368.15 K	6.42
